Sequences of proteins named here, by UniProt entry; tags and fusion partners are left off.
UniProt Q92769, whole entry: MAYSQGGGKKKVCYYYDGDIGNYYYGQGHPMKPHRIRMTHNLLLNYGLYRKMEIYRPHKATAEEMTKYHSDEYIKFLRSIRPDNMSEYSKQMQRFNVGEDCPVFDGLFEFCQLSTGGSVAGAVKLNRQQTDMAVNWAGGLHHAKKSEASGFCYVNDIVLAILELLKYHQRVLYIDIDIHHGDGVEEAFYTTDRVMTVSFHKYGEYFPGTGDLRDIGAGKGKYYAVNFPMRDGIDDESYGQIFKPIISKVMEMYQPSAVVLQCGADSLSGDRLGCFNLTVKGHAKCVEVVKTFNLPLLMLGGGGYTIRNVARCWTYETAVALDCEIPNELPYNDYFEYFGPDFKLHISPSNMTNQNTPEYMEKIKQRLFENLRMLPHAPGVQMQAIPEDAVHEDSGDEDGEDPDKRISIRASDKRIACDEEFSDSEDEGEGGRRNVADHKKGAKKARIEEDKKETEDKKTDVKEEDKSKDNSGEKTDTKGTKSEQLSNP

According to publication PMC8818328 (European journal of medicinal chemistry, 2021):

target: HDAC2 (Homo sapiens, UniProt Q92769); experiment: Fluorogenic enzymatic assay HDAC2; settings: ratio of IC50 values

Row | Compound | HDAC1/ HDAC2 | HDAC3/ HDAC2 | HDAC6/ HDAC2 | HDAC8/ HDAC2
1 | CCn1c(SCCCCCC(=O)Nc2ccccc2N)nnc1-c1ccncc1 [Compound 7b, N-(2-aminophenyl)-6-((4-ethyl-5-(pyridin-4-yl)-4H-1,2,4-triazol-3-yl)thio)hexanamide] | >11.06 | >11.06 | >11.06 | 
2 | CCn1c(SCc2ccc(C(=O)NO)cc2)nnc1-c1ccncc1 [Compound 10b, 4-(((4-ethyl-5-(pyridin-4-yl)-4H-1,2,4-triazol-3-yl)thio)methyl)-N-hydroxybenzamide] | >9.87 |  | >9.87 | >9.87
3 | O=C(CCCCCSc1nnc(-c2ccncc2)n1-c1ccccc1)NO [Compound 6d, N-hydroxy-6-((4-phenyl-5-(pyridin-4-yl)-4H-1,2,4-triazol-3-yl)thio)hexanamide] | >9.27 | >9.27 |  | >9.27
4 | CCn1c(SCCCCCC(=O)NO)nnc1-c1ccncc1 [Compound 6b, 6-((4-ethyl-5-(pyridin-4-yl)-4H-1,2,4-triazol-3-yl)thio)-N-hydroxyhexanamide] |  |  | >9.32 | 
5 | C=CCn1c(SCCCCCC(=O)NO)nnc1-c1ccncc1 [Compound 6c, 6-((4-allyl-5-(pyridin-4-yl)-4H-1,2,4-triazol-3-yl)thio)-N-hydroxyhexanamide] | >25.60 |  |  | 
6 | Nc1ccccc1NC(=O)c1ccc(CSc2nnc(-c3ccncc3)n2-c2ccccc2)cc1 [Compound 11d, N-(2-aminophenyl)-4-(((4-phenyl-5-(pyridin-4-yl)-4H-1,2,4-triazol-3-yl)thio)methyl)benzamide] | 2.64 |  |  | 
7 | C=CCn1c(SCCCCCC(=O)O)nnc1-c1ccncc1 [Compound 5c, 6-((4-allyl-5-(pyridin-4-yl)-4H-1,2,4-triazol-3-yl)thio)hexanoic acid] |  |  | >29.64 | >29.64
8 | Nc1ccccc1NC(=O)CCCCCSc1nnc(-c2ccncc2)n1-c1ccccc1 [Compound 7d, N-(2-aminophenyl)-6-((4-phenyl-5-(pyridin-4-yl)-4H-1,2,4-triazol-3-yl)thio)hexanamide] |  | >7.75 |  | >7.75
9 | CCn1c(SCCCCCC(=O)O)nnc1-c1ccncc1 [Compound 5b, 6-((4-ethyl-5-(pyridin-4-yl)-4H-1,2,4-triazol-3-yl)thio)hexanoic acid] |  |  | >11.37 | >11.37
10 | CCn1c(SCc2ccc(C(=O)Nc3ccccc3N)cc2)nnc1-c1ccncc1 [Compound 11b, N-(2-aminophenyl)-4-(((4-ethyl-5-(pyridin-4-yl)-4H-1,2,4-triazol-3-yl)thio)methyl)benzamide] | >7.49 |  | >7.49 | >7.49
11 | C=CCn1c(SCc2ccc(C(=O)Nc3ccccc3N)cc2)nnc1-c1ccncc1 [Compound 11c, 4-(((4-allyl-5-(pyridin-4-yl)-4H-1,2,4-triazol-3-yl)thio)methyl)-N-(2-aminophenyl)benzamide] | 9.25 |  |  | 
